This passage reports IC50 results from patent US20260062420A1, “NOVEL DPP1 INHIBITORS AND USES THEREOF” (Insmed Incorporated, priority 2022, published 2026).

The chains behind the UniProt entries cited, without tags or fusion partners. Residues count along the entry.
UniProt P53634, 395-463: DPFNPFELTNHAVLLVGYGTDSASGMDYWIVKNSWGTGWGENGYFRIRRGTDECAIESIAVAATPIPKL
UniProt P53634, 25-134: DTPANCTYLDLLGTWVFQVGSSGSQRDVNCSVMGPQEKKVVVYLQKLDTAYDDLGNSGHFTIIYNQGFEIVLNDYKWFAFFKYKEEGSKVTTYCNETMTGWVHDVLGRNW
UniProt P53634, 231-394: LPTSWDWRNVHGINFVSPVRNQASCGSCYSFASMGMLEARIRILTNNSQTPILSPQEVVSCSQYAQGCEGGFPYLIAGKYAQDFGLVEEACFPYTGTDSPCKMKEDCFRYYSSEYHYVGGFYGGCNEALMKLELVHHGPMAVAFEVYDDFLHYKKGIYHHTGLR

Molecules are shown by their SMILES.

The target of assay [1] is DPP1 in HL-60 cells (Homo sapiens (Human), UniProt P53634). Nature of the assay: DPP1 Cell IC50 Assay (HL-60 cells, H-Gly-Phe-AFC substrate). To be noted: Table 16. The format is cell-based. The protocol:
HL-60 cells (ATCC; Manassas, VA) were maintained in RPMI-1640 supplemented with 20% heat-inactivated FBS and 1× Antibiotic Antimycotic (Cytiva; Marlborough, MA). Media was changed every three to four days and cells were not allowed to exceed 1×10^6 cells per mL. Prior to assay, cells were collected by centrifugation at 500 rcf for 3 minutes, resuspended in PBS and counted. Cells were diluted in PBS to a concentration of 5×10^5 live cells per mL and transferred to black 96-well plates for assay, 60 μL per well. Test articles were diluted in PBS plus 0.5% DMSO, and 20 μL was added to each assay well. […] Plates were returned to the incubator with shaking at 100 rpm for 30 minutes, after which fluorescence was measured at Excitation/Emission 400/505 nm. % Inhibition was calculated from RFU values compared to control cell wells that received only PBS plus 0.5% DMSO. IC50 values for each compound were calculated via the XLFit (IDBS Version 5.3.1.3) Add-On to Microsoft Excel using the four parameter fit equation y=(A+((B−A)/(1+((C/x)^D)))), which appears as equation number 205 (4 Parameter Logistic Model or Sigmoidal Dose-Response Model) in XLFit.

In assay [2] the target is Recombinant human DPP1 enzyme (Homo sapiens (Human), UniProt P53634). Put plainly: Human DPP1 Enzyme IC50 Assay. The format is biochemical. To be noted: Table 16. The protocol: Recombinant human DPP1 enzyme (R&D Systems; Minneapolis, MN) was first proteolytically processed into its mature form using recombinant human cathepsin L (R&D Systems) in a buffer consisting of 20 mM citric acid pH 4.5, 150 mM NaCl, 1 mM EDTA and 10 mM DTT. Test articles were applied to activated human DPP1 enzyme in Assay Buffer (25 mM MES pH 6.0, 50 mM NaCl, 5 mM DTT) in a total reaction volume of 125 μL. 25 μL of compound in Assay Buffer plus 5% DMSO was first added to 50 μL of activated human DPP1 enzyme at a concentration of 1 ng/μL and allowed to pre-incubate for 10 minutes at 37° C. after which 50 μL of 1000 μM H-Gly-Arg-AMC substrate (Bachem; St. Torrance, CA) was added, giving final substrate concentration of 400 μM and a final DMSO concentration of 1%. Substrate cleavage was measured for 90 minutes at 37° C., with fluorescence at Excitation/Emission 350/450 nm measured every 5 minutes. DPP1 concentration was interpolated based on its activity relative to a standard curve of activated human recombinant DPP1 enzyme. IC50 values for each compound were calculated via the XLFit (IDBS Version 5.3.1.3) Add-On to Microsoft Excel using the four parameter fit equation y={A+[(B−A)]/[1+((C/x)^D)]}, which appears as equation number 205 (4 Parameter Logistic Model or Sigmoidal Dose-Response Model) in XLFit. Default constraints were used for each Parameter.

For the compound `Cn1c(=O)oc2ccc(-c3ccc(C[C@@H](C#N)NC(=O)[C@@H]4CNCCCO4)c(F)c3)cc21`, the IC50 (usually the concentration needed to halve the response being measured) amounted to 1.3 nM in assay [1] and 6.6 nM in assay [2].

As to `[2H]C([2H])([2H])n1c(=O)oc2ccc(-c3ccc(C[C@@H](C#N)NC(=O)[C@@H]4CNCCCO4)c(F)c3)cc21`, the IC50 in assay [1] came out at 1.2 nM; in assay [2] it was 6 nM.
